Target: DNA gyrase (Escherichia coli, UniProt P0AES4+P0AES6)

Chains of the proteins cited; added tags and fusions are not shown.
UniProt P0AES4, whole entry, looked up: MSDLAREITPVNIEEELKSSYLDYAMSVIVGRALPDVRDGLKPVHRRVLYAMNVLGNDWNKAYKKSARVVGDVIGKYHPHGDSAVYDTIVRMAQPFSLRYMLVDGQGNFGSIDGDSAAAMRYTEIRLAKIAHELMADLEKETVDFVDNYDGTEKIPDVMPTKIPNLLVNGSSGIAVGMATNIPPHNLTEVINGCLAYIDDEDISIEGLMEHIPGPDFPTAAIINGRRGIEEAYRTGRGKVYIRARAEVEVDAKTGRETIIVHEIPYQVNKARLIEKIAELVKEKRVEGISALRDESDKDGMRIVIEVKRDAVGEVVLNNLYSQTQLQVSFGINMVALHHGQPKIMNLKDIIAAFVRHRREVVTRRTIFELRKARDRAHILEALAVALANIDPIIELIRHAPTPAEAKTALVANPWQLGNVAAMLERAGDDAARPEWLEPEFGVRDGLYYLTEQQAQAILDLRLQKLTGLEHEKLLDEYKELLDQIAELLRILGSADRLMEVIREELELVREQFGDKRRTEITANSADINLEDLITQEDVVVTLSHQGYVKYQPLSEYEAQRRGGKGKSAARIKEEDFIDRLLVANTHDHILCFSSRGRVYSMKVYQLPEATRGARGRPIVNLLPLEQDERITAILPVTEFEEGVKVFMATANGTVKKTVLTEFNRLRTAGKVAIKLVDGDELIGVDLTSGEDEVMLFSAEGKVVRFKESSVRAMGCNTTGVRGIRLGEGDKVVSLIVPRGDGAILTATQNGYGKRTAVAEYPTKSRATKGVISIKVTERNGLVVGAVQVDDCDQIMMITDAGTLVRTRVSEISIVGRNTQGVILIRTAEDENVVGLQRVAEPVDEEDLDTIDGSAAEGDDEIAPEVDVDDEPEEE

Work on `O=c1c2nccn2c2cc(F)c(-c3ccncc3)cc2n1C1CC1` yielded an IC50 of 2500 nM.
